# From patent publication US20070060638A1, “Methods and therapies for potentiating therapeutic activities of a cannabinoid receptor agonist via administration of a cannabinoid receptor antagonist” (priority 2005, published 2007)
# Chains of the proteins cited; added tags and fusions are not shown.
# UniProt P20272, whole entry: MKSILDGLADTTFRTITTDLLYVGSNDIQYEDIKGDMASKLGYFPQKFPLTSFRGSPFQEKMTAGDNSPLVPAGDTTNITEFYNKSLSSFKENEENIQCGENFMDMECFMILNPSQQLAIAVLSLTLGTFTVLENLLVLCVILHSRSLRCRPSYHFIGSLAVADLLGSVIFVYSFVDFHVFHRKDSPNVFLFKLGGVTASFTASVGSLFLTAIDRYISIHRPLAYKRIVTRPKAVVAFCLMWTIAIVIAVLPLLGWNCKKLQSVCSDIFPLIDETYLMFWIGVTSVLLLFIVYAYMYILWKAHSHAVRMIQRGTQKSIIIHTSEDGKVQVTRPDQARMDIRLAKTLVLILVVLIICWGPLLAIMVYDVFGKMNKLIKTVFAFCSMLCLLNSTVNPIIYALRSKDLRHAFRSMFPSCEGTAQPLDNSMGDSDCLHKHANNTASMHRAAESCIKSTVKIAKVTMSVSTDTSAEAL
# Molecular target: CB1 receptors (Rattus norvegicus, UniProt P20272)
# Details: striatal tissue, ultra-low dose SR 141716 combined with WIN, chronic treatment
structure (smiles),measurement,value
"Cc1c(C(=O)NN2CCCCC2)nn(-c2ccc(Cl)cc2Cl)c1-c1ccc(Cl)cc1 [SR, N-(Piperidin-1-yl)-5-(4-chlorophenyl)-1-(2,4-dichlorophenyl)-4-methyl-1H-pyrazole-3-carboxamide]",effect on WIN-induced CB1 receptor G-protein coupling switch,prevented this coupling switch
